Laboratory results reported in PMC9712658, “Structural analysis of the 2-oxoglutarate binding site of the circadian rhythm linked oxygenase JMJD5” (Scientific Reports, 2022).

Molecular target: T1, full-length JMJD5 (aa 1–416, JMJD5^FL) (Homo sapiens, UniProt Q8N371)
T1 construct: 10 µM full-length JMJD5 (aa 1–416); His6 (N); made in house; host or cells: Escherichia coli Rosetta2(DE3)-pLysS
T1 sequence (Q8N371 1-416): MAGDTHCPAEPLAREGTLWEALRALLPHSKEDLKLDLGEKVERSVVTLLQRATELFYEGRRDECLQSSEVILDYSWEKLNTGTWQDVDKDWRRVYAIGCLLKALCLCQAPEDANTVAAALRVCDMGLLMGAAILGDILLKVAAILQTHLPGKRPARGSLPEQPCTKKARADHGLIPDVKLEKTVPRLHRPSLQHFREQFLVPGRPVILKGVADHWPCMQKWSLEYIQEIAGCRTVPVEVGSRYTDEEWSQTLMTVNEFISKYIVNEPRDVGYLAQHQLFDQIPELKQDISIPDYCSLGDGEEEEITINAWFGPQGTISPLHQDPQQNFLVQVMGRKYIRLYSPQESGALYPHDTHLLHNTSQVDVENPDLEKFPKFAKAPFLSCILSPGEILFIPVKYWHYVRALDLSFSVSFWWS
Test: JMJD5 inhibition assay by MALDI-TOF MS (hydroxylation of RpS6_129-144 peptide)
Assay type: biochemical
Details: 10 µM JMJD5^FL, 100 µM Fe(II), 400 µM ascorbate, 50 µM 2OG, 100 µM RpS6_129-144, inhibitor 0–10 mM; mean (n = 3) ± SD
Text: To explore inhibition involving orthosteric 2OG ligand binding in the JMJD5 2OG pocket, we initially screened a focused set of compounds comprising relatively close 2OG mimetics, tricarboxylic acid (TCA) cycle intermediates, hypoxia inducible factor (HIF) prolyl hydroxylase (PHD) inhibitors, and JmjC histone demethylase (KDM) inhibitors (Supplementary Fig. S1).
[…] Hydroxylation of RpS6 peptide was monitored by MALDI-TOF MS and intensity of hydroxylated peak was quantified to determine the extent of inhibition caused by inhibitor.

O=C(O)CC(C(=O)O)C(O)C(=O)O (stereo not shown) [Isocitrate]
IC50: 1294 ± 2 µM
